Experimental data: patent US20050202001A1 (priority 2002, published 2005)

Assays:
[1] = tested on: UACC-257 melanoma cells; assay: Melanin content (A405/A280) in UACC-257 melanoma cells; type: cell-based, human; settings: UACC-257, agent alone, 72 hours after treatment; toxins 0.1 μg/ml each, PD98059 20 μM, IBMX 200 μM (FIG. 2A)
[2] = tested on: MALME-3M melanoma cells; assay: Melanin content (A405/A280) in MALME-3M melanoma cells; type: cell-based, human; settings: agent alone, 72 hours after treatment, toxins 0.1 μg/ml each, PD98059 20 μM, IBMX 200 μM (FIG. 2B)

Question: `CC(C)CCc1nc2[nH]c(=O)[nH]c(=O)c2[nH]1` was tested. Which melanin production [1] did it give?
Answer: did not stimulate de novo melanin production

Question: And the melanin production [2]?
Answer: did not stimulate de novo melanin production
